Experimental data taken from patent publication US7517882B2, “Protein kinase inhibitors” (Polaris Group, priority 2006, dated 2009).

By UniProt entry, the sequences of proteins in these tests, tags left out.
UniProt P68400, whole entry: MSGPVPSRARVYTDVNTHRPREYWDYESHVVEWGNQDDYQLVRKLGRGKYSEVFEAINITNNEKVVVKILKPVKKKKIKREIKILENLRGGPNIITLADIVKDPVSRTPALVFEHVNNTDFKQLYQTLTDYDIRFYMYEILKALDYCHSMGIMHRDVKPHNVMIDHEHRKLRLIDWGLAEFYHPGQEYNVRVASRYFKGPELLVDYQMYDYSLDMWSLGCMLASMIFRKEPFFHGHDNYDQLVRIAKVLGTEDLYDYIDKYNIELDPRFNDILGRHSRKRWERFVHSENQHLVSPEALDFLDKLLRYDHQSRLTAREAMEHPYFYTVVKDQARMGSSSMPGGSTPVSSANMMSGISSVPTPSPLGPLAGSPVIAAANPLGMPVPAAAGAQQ

Target: T1, human CK2 (Homo sapiens, UniProt P68400)
T1 construct: Full Length His-tagged Human CK2 was cloned, expressed, and purified; His tag; made in house; host or cells: E. coli
Experiment: CK2 protein kinase inhibition assay (spectrophotometric PK/LDH coupled assay)
Assay type: biochemical
Settings: Table 1, triazine-based compounds; full length His-tagged human CK2, 50 μM ATP, competitive inhibition fit with Km 10 μM
Method: CK2 protein kinase activity was measured through use of a spectrophotometric PK/LDH coupled assay to detect ATP turnover. Full Length His-tagged Human CK2 was cloned, expressed, and purified from an E. coli expression system. The peptide substrate for CK2 phosphorylation was […] (Genscript Corporation, Piscataway, N.J., USA). […] Prior to the addition of ATP to initiate the phosphorylation reaction, CK2 enzyme was pre-incubated with inhibitors and other assay components for 5 min. Progress of the reaction was continuously monitored by the change in UV/Vis absorbance at 340 nm. […] In the case of very potent binding, tight-binding methods were employed to determine Ki.

Compound: O=C1CCCCc2cnn3c(NC4CC4)nc(nc23)Nc2cccc(c2)N1 [Compound 11a, (11,14)3,5N-{cyclopropyl-pyrazolo[1,5-a][1,3,5]triazin-4-ylamino}-(2N,4N)-phenyl-1,5-diaza-cyclotetradeca-8-one]
- Ki: < 100 nM
